Test system: MIA PaCa-2 tumor cells
Test: Anti-tumor pharmacodynamic evaluation, MIA PaCa-2 subcutaneous xenograft
Design: species or system nude mice
Conditions: mouse, in vivo
Method: 100 μL of a suspension containing 5×10^6 MIA PaCa-2 tumor cells was subcutaneously inoculated into the right posterior abdomens of nude mice. The health of the mice was monitored daily, and measurements were started when tumors grew to be palpable. The tumor volume was calculated as follows: 0.5×L×W^2, where L and W represent the length and width of the tumor, respectively. When the tumors grew to about 100 mm^3, the mice were randomized into groups. The mice were intragastrically administered a corresponding dose (50 mg/kg) of compound suspension in CMC-Na twice daily, and their general states were monitored at the same time. The tumors were measured 3 times a week, and the body weight was measured twice a week.

With COc1cc2nc(C)nc(N[C@H](C)c3cc(N)cc(C(F)(F)F)c3)c2cc1O[C@H]1CCOC1 [BI3406, reference compound] the “% TGI (tumor growth inhibition)” value was 75.7%, the “TV (mm^3) (tumor volume) Day 21” value was 223 mm^3 and the “TV (mm^3) (tumor volume) Day 0” value (50 mg/kg) was 103 mm^3.

Reference: patent US20240336606A1 (Suzhou Zelgen Biopharmaceuticals Co., Ltd., priority 2020, published 2024)
